Results reported in patent US20260022143A1, “Cyclic Peptide Inhibitors of IL-23” (JANSSEN PHARMACEUTICA NV, priority 2022, published 2026).
pIC50: −log10 of the molar value.

Target: T1, IL-23R (Homo sapiens, UniProt Q5VWK5)
T1 construct: host or cells: HEK293
T1 sequence (Q5VWK5 24-629): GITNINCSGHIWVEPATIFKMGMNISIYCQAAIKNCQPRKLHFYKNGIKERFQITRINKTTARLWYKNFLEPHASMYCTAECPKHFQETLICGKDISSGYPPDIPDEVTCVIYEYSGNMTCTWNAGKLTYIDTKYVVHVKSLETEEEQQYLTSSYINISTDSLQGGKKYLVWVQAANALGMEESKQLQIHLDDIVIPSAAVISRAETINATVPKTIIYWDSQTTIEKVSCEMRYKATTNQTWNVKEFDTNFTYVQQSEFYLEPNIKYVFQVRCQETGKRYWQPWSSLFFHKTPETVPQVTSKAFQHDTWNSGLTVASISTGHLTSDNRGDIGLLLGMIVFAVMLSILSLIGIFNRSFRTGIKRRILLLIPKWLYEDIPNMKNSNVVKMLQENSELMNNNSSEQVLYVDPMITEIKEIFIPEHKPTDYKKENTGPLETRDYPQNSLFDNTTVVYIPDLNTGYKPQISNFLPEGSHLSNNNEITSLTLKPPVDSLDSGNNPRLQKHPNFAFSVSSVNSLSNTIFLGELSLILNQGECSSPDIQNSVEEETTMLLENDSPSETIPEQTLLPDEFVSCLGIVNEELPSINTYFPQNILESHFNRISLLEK
Assay: IL23R Reporter Assay
Type: cell-based
Conditions: HEK293 cells containing IL-23R, IL-12RP1 and STAT-inducible firefly luciferase reporter; 10 ng/mL IL-23 (EC90); 5 h at 37° C.; read-out: IL23R Reporter Assay

Row | SMILES | pIC50
1 | CC(=O)N(C)CCCC[C@@H]1NC(=O)[C@H](Cc2c[nH]c3c(C)cccc23)NC(=O)[C@H]([C@@H](C)O)NC(=O)[C@H](CC(=O)N(C)C)NC(=O)[C@@H](NC(=O)CCOCCOCC[N+](C)(C)C)C(C)(C)SSC(C)(C)[C@@H](C(=O)N[C@@H](Cc2ccc(OC/C=N/OCC[N+](C)(C)C)cc2)C(=O)N[C@@H](Cc2ccc3ccccc3c2)C(=O)NC2(C(=O)N[C@@H](CCCCN(C)C(C)=O)C(=O)N[C@@H](CC(N)=O)C(=O)N[C@@H](Cc3cccnc3)C(=O)N(C)CC(=O)N(C)C)CCOCC2)NC1=O [compound 305, cPEG3aCO-Pen(3)-N(N(Me)2)-T-7MeW-K(NMeAc)-Pen(3)-Y(OEOXlMECh)-2Nal-THP-K(NMeAc)-N-3Pya-Sar-CON(Me)2] | 8.62
2 | CC(=O)N(C)CCCC[C@@H]1NC(=O)[C@H](Cc2c[nH]c3c(C)cccc23)NC(=O)[C@H]([C@@H](C)O)NC(=O)[C@H](CC(=O)N(C)C)NC(=O)[C@@H](NC(=O)CCOCCOCC[N+](C)(C)C)C(C)(C)SSC(C)(C)[C@@H](C(=O)N[C@@H](Cc2ccc(OCCCCC[N+](C)(C)C)cc2)C(=O)N[C@@H](Cc2ccc3ccccc3c2)C(=O)NC2(C(=O)N[C@@H](CCC(=O)N(C)C)C(=O)N[C@@H](CC(N)=O)C(=O)N[C@@H](Cc3cccnc3)C(=O)N(C)CC(=O)N(C)C)CCOCC2)NC1=O [compound 310, cPEG3aCO-Pen(3)-N(N(Me)2)-T-7MeW-K(NMeAC)-Pen(3)-TMAPF-2Nal-THP-Q(N(Me)2)-N-3Pya-Sar-CON(Me)2] | 8.66
3 | CC(=O)N(C)CCCC[C@H](NC(=O)C1(NC(=O)[C@H](Cc2ccc3ccccc3c2)NC(=O)[C@H](Cc2ccc(OCCCCC[N+](C)(C)C)cc2)NC(=O)[C@H]2NC(=O)[C@H](CCC(=O)N(C)C)NC(=O)[C@H](Cc3c[nH]c4c(C)cccc34)NC(=O)[C@H]([C@@H](C)O)NC(=O)[C@H](CC(=O)N(C)C)NC(=O)[C@@H](NC(=O)CCOCCOCC[N+](C)(C)C)C(C)(C)SSC2(C)C)CCOCC1)C(=O)N[C@@H](CC(N)=O)C(=O)N[C@@H](Cc1cccnc1)C(=O)N(C)CC(=O)N(C)C [compound 312, cPEG3aCO-Pen(3)-N(N(Me)2)-T-7MeW-Q(N(Me)2)-Pen(3)-TMAPF-2Nal-THP-K(NMeAC)-N-3Pya-Sar-CON(Me)2] | 8.96

Results, then the compound that gave them:

Row | pIC50 | SMILES
4 | 8.89 | CC(=O)N(C)CCCC[C@@H]1NC(=O)[C@H](Cc2c[nH]c3c(C)cccc23)NC(=O)[C@H]([C@@H](C)O)NC(=O)[C@H](CC(=O)N(C)C)NC(=O)[C@@H](NC(=O)CCOCCOCC[N+](C)(C)C)C(C)(C)SSC(C)(C)[C@@H](C(=O)N[C@@H](Cc2ccc(-n3cc(CCCC[N+](C)(C)C)nn3)cc2)C(=O)N[C@@H](Cc2ccc3ccccc3c2)C(=O)NC2(C(=O)N[C@@H](CCCCN(C)C(C)=O)C(=O)N[C@@H](CC(N)=O)C(=O)N[C@@H](Cc3cccnc3)C(=O)N(C)CC(=O)N(C)C)CCOCC2)NC1=O [compound 302, cPEG3aCO-Pen(3)-N(N(Me)2)-T-7MeW-K(NMeAc)-Pen(3)-F(4TzlTMA4)-]
5 | 8.44 | COCc1cn(-c2ccc(C[C@H](NC(=O)[C@H]3NC(=O)[C@H](CCCCN(C)C(C)=O)NC(=O)[C@H](Cc4c[nH]c5c(C)cccc45)NC(=O)[C@H]([C@@H](C)O)NC(=O)[C@H](CC(=O)N(C)C)NC(=O)[C@@H](NC(=O)CCOCCOCC[N+](C)(C)C)C(C)(C)SSC3(C)C)C(=O)N[C@@H](Cc3ccc4ccccc4c3)C(=O)NC3(C(=O)N[C@@H](CCCCN(C)C(C)=O)C(=O)N[C@@H](CC(N)=O)C(=O)N[C@@H](Cc4cccnc4)C(=O)N(C)CC(=O)N(C)C)CCOCC3)cc2)nn1 [compound 303, cPEG3aCO-Pen(3)-N(N(Me)2)-T-7MeW-K(NMeAc)-Pen(3)-F(4TzlMME)-2Nal-THP-K(NMeAc)-N-3Pya-Sar-CON(Me)2]
